# In patent US20070203060A1, “Casein Derived Peptides And Therapeutic Uses Thereof” (priority 2004, published 2007):
# System: peripheral white blood cells of myeloablated, bone marrow transplanted mice
# Test: Leukocyte reconstitution in irradiated bone marrow transplant recipient mice
# Type: in vivo, mouse
# Settings: F1 mice, 750 cGy, 1 mg i.v., 5 and 7 days post-transplantation
substance,measurement,value
SEQ ID NO: 434: synthetic peptide derived from κ-casein as printed in b423; probably κ 106-127 (SEQ ID NO: 30) (YY),early leukocyte reconstitution (in words),strong stimulation
